Tests used:
DOR = conditions: read-out: IC50, affinity binding to the DOR; literature values marked (IC50); ref Reference column of Table S2; cited from earlier work
KOR = conditions: ref References column of Table S3, cited from earlier work; for Ki: read-out: Ki, affinity binding to the KOR, literature values, one reference per ligand
[1] = molecular target: human mu opioid receptor (MOR1) (Homo sapiens, UniProt P35372); experiment: DMR agonist assay in HEK-MOR cells; assay type: cell-based; conditions: ligand 10 μM
[2] = molecular target: T1, human delta opioid receptor (Homo sapiens, UniProt P41143); experiment: DMR agonist assay in HEK-DOR cells; conditions: for DMR agonist activity classification, DOR: ligand 10 μM
[3] = molecular target: human kappa opioid receptor (Homo sapiens, UniProt P41145); experiment: DMR agonist assay in HEK-KOR cells; assay type: cell-based; conditions: ligand 10 μM
[4] = molecular target: T1, human delta opioid receptor; experiment: iPOT DMR profiling of HEK-DOR cells pretreated with probe molecules; assay type: cell-based; conditions: ligand 10 μM
MOR = conditions: read-out: Ki, affinity binding to the MOR; literature values, one reference per ligand; ref Reference column of Table S1; cited from earlier work

By UniProt entry, the sequences of proteins in these tests, tags left out. Where a name states a change or a piece, a line headed by the entry shows the natural chain unless it says otherwise.
UniProt P35372, whole entry, looked up: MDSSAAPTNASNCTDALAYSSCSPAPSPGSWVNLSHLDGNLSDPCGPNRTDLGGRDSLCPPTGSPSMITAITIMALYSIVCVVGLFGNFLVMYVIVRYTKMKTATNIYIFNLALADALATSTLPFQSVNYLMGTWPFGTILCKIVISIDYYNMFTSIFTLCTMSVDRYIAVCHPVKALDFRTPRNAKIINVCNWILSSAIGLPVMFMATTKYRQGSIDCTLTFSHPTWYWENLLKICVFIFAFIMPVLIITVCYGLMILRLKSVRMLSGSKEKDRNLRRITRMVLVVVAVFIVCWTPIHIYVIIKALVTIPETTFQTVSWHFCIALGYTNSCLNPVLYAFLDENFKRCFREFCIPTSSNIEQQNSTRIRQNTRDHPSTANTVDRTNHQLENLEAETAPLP
UniProt P41143, whole entry, looked up: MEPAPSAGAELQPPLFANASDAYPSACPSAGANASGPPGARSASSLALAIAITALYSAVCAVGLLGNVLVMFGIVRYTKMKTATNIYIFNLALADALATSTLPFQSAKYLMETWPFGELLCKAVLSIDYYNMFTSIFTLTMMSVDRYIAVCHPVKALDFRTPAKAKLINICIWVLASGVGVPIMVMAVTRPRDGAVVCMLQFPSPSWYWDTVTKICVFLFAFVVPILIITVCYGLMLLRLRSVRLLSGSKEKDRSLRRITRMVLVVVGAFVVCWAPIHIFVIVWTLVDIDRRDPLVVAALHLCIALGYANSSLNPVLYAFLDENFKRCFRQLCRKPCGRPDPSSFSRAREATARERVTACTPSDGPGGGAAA
UniProt P41145: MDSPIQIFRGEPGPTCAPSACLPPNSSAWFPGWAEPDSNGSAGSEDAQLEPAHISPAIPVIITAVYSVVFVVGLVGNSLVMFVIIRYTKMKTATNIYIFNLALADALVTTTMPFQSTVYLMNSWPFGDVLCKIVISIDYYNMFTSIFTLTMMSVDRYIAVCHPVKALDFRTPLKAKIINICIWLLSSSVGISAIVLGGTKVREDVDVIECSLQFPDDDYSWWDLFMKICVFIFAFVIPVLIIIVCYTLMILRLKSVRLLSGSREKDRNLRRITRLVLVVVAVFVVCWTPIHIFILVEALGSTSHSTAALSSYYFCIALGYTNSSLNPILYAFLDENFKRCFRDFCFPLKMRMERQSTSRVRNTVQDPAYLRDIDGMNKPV

Compound | IC50 (DOR) | IC50 (KOR; read-out: IC50, affinity binding to the KOR, literature values marked (IC50)) | DMR agonist activity classification, MOR [1] | DMR agonist activity classification, DOR [2] | maximal DMR amplitude ([2]; monophasic dose response, n = 16) | DMR agonist activity classification, KOR [3] | Ki (KOR) | effect of LY294002 pretreatment on ligand DMR ([4]; 10 μM LY294002, 1 hr) | effect of SB202190 pretreatment on ligand DMR ([4]; 10 μM SB202190, 1 hr) | effect of SP600125 pretreatment on ligand DMR ([4]; 10 μM SP600125, 1 hr) | effect of U0126 pretreatment on ligand DMR ([4]; 10 μM U0126, 1 hr) | Ki (MOR)
CN(C(=O)Cc1ccccc1)[C@H](CN1CCCC1)c1ccccc1 | > 1000 nM | 1.4 nM | – | – | – | – | – | – | – | – | – | –
CN(C(=O)Cc1ccccc1)[C@H](CN1CCCC1)c1ccccc1.Cl | – | – | Partial agonist (a ligand whose DMR amplitude was smaller the mean-2σ of its positive control and greater than 50 pm was considered to be a partial agonist) | Partial agonist (a ligand whose DMR amplitude was smaller the mean-2σ of its positive control and greater than 50 pm was considered to be a partial agonist) | – | – | – | – | – | – | – | –
CN(C(=O)Cc1ccc(Cl)c(Cl)c1)[C@H](CN1CCCC1)c1ccccc1 [ICI 199,441] | – | – | Full agonist | Partial agonist (a ligand whose DMR amplitude was smaller the mean-2σ of its positive control and greater than 50 pm was considered to be a partial agonist) | 300±23 pm | Full agonist | 0.054 nM | – | – | – | – | –
(8-Naphthalen-1-ylmethyl-4-oxo-1-phenyl-1,3,8-triaza-spiro[4.5]-dec-3-yl)-acetic acid methyl ester | – | – | Partial agonist (a ligand whose DMR amplitude was smaller the mean-2σ of its positive control and greater than 50 pm was considered to be a partial agonist) | Partial agonist (a ligand whose DMR amplitude was smaller the mean-2σ of its positive control and greater than 50 pm was considered to be a partial agonist) | – | Partial agonist (a ligand whose DMR amplitude was smaller the mean-2σ of its positive control and greater than 50 pm was considered to be a partial agonist) | 405 nM | insensitive | suppressed | insensitive | insensitive | 140 nM

From PMC3602246 (BMC Pharmacology & Toxicology, 2013)
